## Antibody variant affinities, Ab-14 light chain, assay 1

The target is the same throughout: PDVDLGDISGINAS, from the HR2 region of SARS-CoV-2 spike.

Ab-14 is the parent antibody, in scFv form: VH, then a 15-residue (Gly4Ser)3 linker, then VL. The heavy chain is unchanged in all variants.
VH: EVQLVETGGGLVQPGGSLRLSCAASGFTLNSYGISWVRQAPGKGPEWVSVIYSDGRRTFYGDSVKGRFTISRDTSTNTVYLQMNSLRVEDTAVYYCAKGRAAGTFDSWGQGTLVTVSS
VL: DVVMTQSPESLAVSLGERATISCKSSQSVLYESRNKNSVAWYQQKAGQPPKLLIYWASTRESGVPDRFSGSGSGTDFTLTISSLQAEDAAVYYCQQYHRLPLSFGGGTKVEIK

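The parent was found by panning a naive human phage display library on the peptide. In library AAYL50, one, two or three CDR residues were substituted; doubles and triples were drawn at random. The assay is AlphaSeq: two haploid yeast populations carry antibody and antigen on their surface. The frequency of each diploid, read from paired DNA barcodes, reflects how well the two displayed proteins bind. Read counts were normalised to the haploid input and turned into Kd by a linear fit to BCL2-family pairs of known affinity, for each replicate. There are three technical replicates.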

Each variant is given by its three light chain CDRs, as the data file delimits them; those of the parent are KSSQSVLYESRNKNSVA, WASTRES, QQYHRLPLS.
Every variant below is changed at R34 of the VL (sequential numbering).
Scale: log10 of Kd in nM, estimated from mating counts; low values are strong binders.
A mean of the replicates is given; it leaves out those without a signal.
Where no diploid with the target was found in any replicate, the entry reads "no signal": below detection, most likely a poor binder, though not proof of it.
Order: sorted from the lowest average up, undetected variants last.
In this assay the parent's reference entry averaged 0.65; its copy inside this library read 1.68.

* KSSQSVLGEGNNKNSVA | WASTRES | QQYHRLPLS -> 0.02 (3 of 3 replicates; controls 3 of 9)
* KISQSVLYESSNKNSVA | WASTRES | QQYHRLPLS -> 0.28 (3 of 3 replicates; controls 5 of 9)
* KSSQSVLYESSDKNSVA | WASVRES | QQYHRLPLS -> 0.34 (3 of 3 replicates; controls 1 of 9)
* KSSQSVLYESDNKNSVA | WASTRES | QQYHRLPLS -> 0.36 (3 of 3 replicates; controls 3 of 9)
* KSSQSVLYESPNKNSVA | WASTRES | QQYHRLPLS -> 0.52 (3 of 3 replicates; controls 0 of 9)
* KSSQSVLYESQNKNSVA | WASTRES | QQHHRLVLS -> 0.54 (3 of 3 replicates; controls 0 of 9)
* KSSQSVLYESYNKNSVA | WASTRET | QQYHRLPLM -> 0.61 (3 of 3 replicates; controls 3 of 9)
* KQSQSVLYNSGNKNSVA | WASTRES | QQYHRLPLS -> 0.67 (3 of 3 replicates; controls 0 of 9)
* KSSQSVLYESLNKNSLA | WASTRSS | QQYHRLPLS -> 0.67 (3 of 3 replicates; controls 0 of 9)
* KSSQSVLYESLNKNSVA | WARMRES | QQYHRLPLS -> 0.81 (3 of 3 replicates; controls 1 of 9)
* KSSQPVLYESENKNSVA | WASTRES | IQYHRLPLS -> 0.94 (3 of 3 replicates; controls 0 of 9)
* KSSQSVLYKSDNKNSVA | WASTRQS | QQYHRLPLS -> 1.00 (3 of 3 replicates; controls 5 of 9)
* KSDQSVLYESAYKNSVA | WASTRES | QQYHRLPLS -> 1.09 (3 of 3 replicates; controls 3 of 9)
* KSSQSVLYESNNENSVA | WASTRES | QQYHRLPLS -> 1.21 (3 of 3 replicates; controls 0 of 9)
* KSSQSWLYESSNKNSVA | WASTRES | QQYHRLPLQ -> 1.47 (3 of 3 replicates; controls 0 of 9)
* KSSQSVHYESNNKNSVA | WAFTRES | QQYHRLPLS -> 1.60 (3 of 3 replicates; controls 2 of 9)
* KSSQSVLVESYNKNSVA | WAWTRES | QQYHRLPLS -> 1.76 (3 of 3 replicates; controls 1 of 9)
* SSSQSVLYESFNNNSVA | WASTRES | QQYHRLPLS -> 1.81 (3 of 3 replicates; controls 7 of 9)
* VSSQSVLYESFNKNSVA | WASTRES | QQYHYLPLS -> 1.90 (3 of 3 replicates; controls 0 of 9)
* KSSQSVCYESKNKNSVA | WASTRES | QQYHRLPLS -> 1.94 (3 of 3 replicates; controls 2 of 9)
* KSTQSVLYESWNKNSVA | WASTRES | QQYHRLPLS -> 1.95 (3 of 3 replicates; controls 4 of 9)
* KSSQRVLYESWNKNSVA | WASTRER | QQYHRLPLS -> 2.28 (3 of 3 replicates; controls 0 of 9)
* KSSQKVLYESCNKNSVA | WASTRES | QQYHILPLS -> 2.41 (3 of 3 replicates; controls 4 of 9)
* KSDQSVLYESTNKNSVA | WAITRES | QQYHRLPLS -> 2.53 (3 of 3 replicates; controls 1 of 9)
* KSFQSVLYESLNKNSVA | WASTRES | QQYHRLPLV -> 2.80 (3 of 3 replicates; controls 0 of 9)
* KSSQSVLYESNNKNSVN | WARTRES | QQYHRLPLS -> 3.07 (1 of 3 replicates; controls 3 of 9)
* KSSQSVLYESYNKNSVA | WACTREC | QQYHRLPLS -> 3.07 (3 of 3 replicates; controls 4 of 9)
* KSSQSVLYHSCNKNSVA | WASTRES | MQYHRLPLS -> 3.08 (1 of 3 replicates; controls 2 of 9)
* KSSQSVLYESWNKNSVA | WCSTRES | QQYHRLPLS -> 3.09 (1 of 3 replicates; controls 1 of 9)
* KSSQSVLYESFNKTSVA | WASTRWS | QQYHRLPLS -> 3.17 (3 of 3 replicates; controls 4 of 9)
* KSSQSVLYESQNKNSVA | CASTSES | QQYHRLPLS -> 3.19 (3 of 3 replicates; controls 1 of 9)
* KSSQSVLYESDNKNSVP | WASTRES | QQYHRFPLS -> 4.42 (1 of 3 replicates; controls 3 of 9)
* KSSQSVLYESIWKNSVW | WASTRES | QQYHRLPLS -> 5.89 (1 of 3 replicates; controls 3 of 9)
* KSSQSVLYKSNNKNSHA | WASTRES | QQYHRLPLS -> no signal (0 of 3 replicates; controls 0 of 9)
* KSSQSVLYESVNKYVVA | WASTRES | QQYHRLPLS -> no signal (0 of 3 replicates; controls 0 of 9)
* KSSQSVLYESKNKFTVA | WASTRES | QQYHRLPLS -> no signal (0 of 3 replicates; controls 0 of 9)
* KESQSVLYESSNKNSHA | WASTRES | QQYHRLPLS -> no signal (0 of 3 replicates; controls 1 of 9)
* KSSQSVLYESTNKNSVA | WAATRES | QQYHRLPLC -> no signal (0 of 3 replicates; controls 1 of 9)
* KSSEFVLYESDNKNSVA | WASTRES | QQYHRLPLS -> no signal (0 of 3 replicates; controls 3 of 9)
* KSSQSVLYESYNKNSVA | WASTRES | YQYHRLPLS -> no signal (0 of 3 replicates; controls 0 of 9)
* KSSQSVLYESDNKNSVA | LASTRES | QVYHRLPLS -> no signal (0 of 3 replicates; controls 0 of 9)
* KSSQSVLTESTNKNSVA | WASTRES | QGYHRLPLS -> no signal (0 of 3 replicates; controls 0 of 9)
* KSSQSVLYESCNKNSYA | WAYTRES | QQYHRLPLS -> no signal (0 of 3 replicates; controls 1 of 9)

Repeated from above, the 5 best binders with a signal in all replicates:

* KSSQSVLGEGNNKNSVA | WASTRES | QQYHRLPLS: 0.02 (3 of 3 replicates; controls 3 of 9)
* KISQSVLYESSNKNSVA | WASTRES | QQYHRLPLS: 0.28 (3 of 3 replicates; controls 5 of 9)
* KSSQSVLYESSDKNSVA | WASVRES | QQYHRLPLS: 0.34 (3 of 3 replicates; controls 1 of 9)
* KSSQSVLYESDNKNSVA | WASTRES | QQYHRLPLS: 0.36 (3 of 3 replicates; controls 3 of 9)
* KSSQSVLYESPNKNSVA | WASTRES | QQYHRLPLS: 0.52 (3 of 3 replicates; controls 0 of 9)

Background: pairings of library AAYL50 with three empty control strains gave a value in 18% of cases (median 4.19, 5th percentile 2.99). Values in that range, when seen in few replicates, are hard to tell from nonspecific mating. Also given: how often the same scFv was detected with the empty control strains.

Data: MIT Lincoln Laboratory AlphaSeq set, Engelhart et al. 2022, doi:10.1038/s41597-022-01779-4, as distributed in FLAb.